Values quoted from earlier work in US20140193463A1, “PEPTIDE FOR INHIBITING DIPEPTIDYL-PEPTIDASE IV” (CHINA MEDICAL UNIVERSITY, priority 2013, published 2014).

By UniProt entry, the sequences of proteins in these tests, tags left out.
UniProt P27487, whole entry, species assumed: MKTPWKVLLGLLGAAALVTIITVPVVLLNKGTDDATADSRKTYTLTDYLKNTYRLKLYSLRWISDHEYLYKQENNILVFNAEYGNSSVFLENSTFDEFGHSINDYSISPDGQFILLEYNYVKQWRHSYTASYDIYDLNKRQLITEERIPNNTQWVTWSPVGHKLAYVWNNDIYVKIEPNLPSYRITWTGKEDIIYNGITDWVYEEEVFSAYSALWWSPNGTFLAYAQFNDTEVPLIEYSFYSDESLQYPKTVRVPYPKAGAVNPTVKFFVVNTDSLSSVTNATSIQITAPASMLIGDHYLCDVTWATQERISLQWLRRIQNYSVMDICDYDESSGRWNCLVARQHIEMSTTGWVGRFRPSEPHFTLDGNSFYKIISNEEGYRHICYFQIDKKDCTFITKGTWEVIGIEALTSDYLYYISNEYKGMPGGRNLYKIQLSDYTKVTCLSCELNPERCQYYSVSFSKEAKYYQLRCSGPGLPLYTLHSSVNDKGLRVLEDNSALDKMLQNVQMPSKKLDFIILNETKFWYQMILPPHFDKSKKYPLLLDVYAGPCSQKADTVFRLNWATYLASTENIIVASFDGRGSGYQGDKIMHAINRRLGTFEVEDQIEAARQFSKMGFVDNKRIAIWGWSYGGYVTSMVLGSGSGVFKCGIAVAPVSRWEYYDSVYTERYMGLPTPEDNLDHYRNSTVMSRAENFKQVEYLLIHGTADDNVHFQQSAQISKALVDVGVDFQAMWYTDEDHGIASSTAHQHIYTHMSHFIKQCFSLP

Target: DPP-IV (Homo sapiens, UniProt P27487)
Details: cited from earlier work

**Q.** Which “IC50 values, inhibitory activity on DPP-IV” value (isolated from culture filtrates of Bacillus cereus BMF673-RF1, related art) does the source give for Val-Pro-Leu [Diprotin B] here?
**A.** The value was 5.5 µg/mL.

**Q.** What about the IC50 (previous studies, read-out: IC50 values against DPP-IV) of the same substance?
**A.** The IC50 was 16.8 µM.
